Results as given in patent US11591365B2, “BCL9 peptides and variants thereof” (WntRx Pharmaceuticals Inc., priority 2017, dated 2023).

Test system: Colo320DM
Experiment: Colo320DM cell viability
Type: cell-based, human
Text: In some embodiments, a polypeptide described herein inhibits binding of BLC9 to β-catenin when assessed in a cell-viability assay. In some embodiments, the cell-viability assay is a CellTiterGlo luminescent assay, wherein the viability of cells is quantitatively measured. Various cell lines, transformed cell lines or primary cells derived from a healthy subject or subject suffering from a disease can be used in this assay.

IC50: 2.6 µM
SMILES: CC[C@H](C)[C@@H]1NC(=O)[C@@](C)(NC(=O)[C@H](CCCNC(=N)N)NC(=O)[C@H](CC(C)C)NC(=O)[C@@H](NC(=O)[C@H](CCC(N)=O)NC(=O)[C@H](CC(C)C)NC(=O)[C@H](CO)NC(=O)[C@H](CCCNC(=N)N)NC(=O)[C@H](CCC(N)=O)NC(=O)[C@H](CCCNC(=N)N)NC(=O)[C@H](Cc2c[nH]cn2)NC(C)=O)[C@@H](C)O)CCCC=CCCC[C@@](C)(C(=O)N[C@@H](CC2CCC2)C(=O)N[C@@H](Cc2ccc3ccccc3c2)C(=O)NCCC(=O)NCCC(N)=O)NC(=O)[C@H](CCCNC(=N)N)NC(=O)[C@H](CCC(N)=O)NC1=O [SEQ ID NO: 148, HRQRSLQTLRXIQRX(CBA)(2-Nal)(β-Ala)(β-Ala)]
